This is an account of results in PubChem BioAssay AID602329 (Broad Institute, 2012).

Sequences of proteins named here, by UniProt entry; tags and fusion partners are left off.
UniProt Q92698, whole entry: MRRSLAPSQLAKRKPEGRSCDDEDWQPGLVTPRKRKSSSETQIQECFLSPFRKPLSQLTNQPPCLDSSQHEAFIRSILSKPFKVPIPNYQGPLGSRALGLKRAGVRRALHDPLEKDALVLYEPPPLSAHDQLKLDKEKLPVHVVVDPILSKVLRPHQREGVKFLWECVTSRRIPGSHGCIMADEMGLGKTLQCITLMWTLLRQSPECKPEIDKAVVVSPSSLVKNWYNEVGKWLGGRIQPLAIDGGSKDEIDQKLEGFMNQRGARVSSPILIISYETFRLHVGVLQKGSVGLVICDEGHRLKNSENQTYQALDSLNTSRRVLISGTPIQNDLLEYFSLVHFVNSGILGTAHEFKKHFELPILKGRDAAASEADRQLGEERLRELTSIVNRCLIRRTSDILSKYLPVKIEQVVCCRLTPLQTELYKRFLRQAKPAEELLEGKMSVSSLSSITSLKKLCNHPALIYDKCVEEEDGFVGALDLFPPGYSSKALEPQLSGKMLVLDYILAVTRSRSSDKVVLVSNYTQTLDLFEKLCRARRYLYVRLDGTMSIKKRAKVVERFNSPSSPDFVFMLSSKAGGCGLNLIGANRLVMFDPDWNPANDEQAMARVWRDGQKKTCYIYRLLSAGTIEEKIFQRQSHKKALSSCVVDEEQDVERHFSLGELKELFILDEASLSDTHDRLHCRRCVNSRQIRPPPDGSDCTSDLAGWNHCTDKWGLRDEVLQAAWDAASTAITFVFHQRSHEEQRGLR

The list shows a part of the results, in another mix than the full data. Some of these compounds have results that are not shown, active ones among them. Active and inactive are the calls of the source.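 How the source made its calls: active means mean normalized replicate activity at least 40 and at least half of replicates scoring 40 or more; inconclusive means only one of the two criteria met; inactive means mean below 40 and under half of replicates reaching 40.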

This assay concerns the target DNA repair and recombination protein RAD54-like (Homo sapiens) (UniProt Q92698). As to the kind of experiment: inhibitors of human RAD54 branch migration, primary screen, biochemical, fluorescence, single point (AID 602329).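 Further: 0% = median of neutral control wells and 100% = median of positive control wells; inhibitors cause a drop in the FAM fluorescence signal.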 Particulars: RAD54 Holliday junction branch migration, FAM/BHQ fluorescence; at 10.4 µM; active compounds read high.
For orientation: inhibition means the change of the read-out against control, counted positive when it falls. `CN(C)c1ccc(C(=O)NCC2(N(C)C)CCCCC2)cc1`: the inhibition is inactive: -3.41%.

On to `O=C(NCC1(N2CCCCC2)CCCCC1)c1cc(F)c(F)cc1Cl`, for which the inhibition was inactive: 2.22%. Next, `COc1ccc(C(=O)NCC2(N(C)C)CCCCC2)cc1`: inactive: -5.04%; `O=C(NCC1(N2CCCCC2)CCCCC1)c1cccc(Br)c1`: inactive: 3.36%; `Cc1cc(C(=O)NCC2(N3CCCCC3)CCCCC2)ccc1[N+](=O)[O-]`: inactive: 4.35%. As for `CN1[C@@H]2CC[C@H]1CC(OC(=O)C(O)(c1ccccc1)c1ccccc1)C2` (some centres undefined), the inhibition was inactive: 6.06%.

In the case of `COc1cc(SC)ccc1C(=O)NCC1(N(C)C)CCCCC1`, the inhibition was inactive: 10.8%. Next, `CCN(CC)CC(C)C(C)OC(=O)C(O)(c1ccccc1)c1ccccc1` (centres undefined): inactive: 3%. Next, `CC(C)N1C(=O)CC2(CCN(CCOC(=O)C(O)(c3ccccc3)c3ccccc3)CC2)C1=O`: inactive: 3.35%; `Cc1ccc(C(=O)NCC2(N3CCCCC3)CCCCC2)cc1`: inactive: -4.8%. In the case of `C=C(C)C#CC(O)(C(=O)OC1CCN(C)CC1)c1ccccc1` (centres undefined) it was inactive: 8.02%; in that of `COc1ccc(Br)c(C(=O)NCC2(N3CCCCC3)CCCCC2)c1`, inactive: -3.78%. For `O=C(OCCN1CCCC1)C(O)(c1ccccc1)c1ccccc1`, the inhibition is inactive: 6.34%.

With `CC(C)Oc1ccc(C(=O)NCC2(N(C)C)CCCCC2)cc1`, the inhibition was inactive: 3.73%. In the case of `CN(C)c1cccc(C(=O)NCC2(N(C)C)CCCCC2)c1` it was inactive: 9.61%; in that of `CN(C)C1(CNC(=O)c2ccc(Br)cc2)CCCCC1`, inactive: -4.55%; in that of `COc1cc(C(=O)NCC2(N(C)C)CCCCC2)c([N+](=O)[O-])cc1OC`, inactive: -4.43%. Next, `COc1ccc(Cl)cc1C(=O)NCC1(N(C)C)CCCCC1`: inactive: -8.32%; `O=C(NCC1(N2CCCCC2)CCCCC1)c1cccc(Cl)c1`: inactive: 3.11%.
